Results from PMC8659078, “A Validated HPLC-PDA-HRMS Method to Investigate the Biological Stability and Metabolism of Antiparasitic Triterpenic Esters” (Molecules, 2021).

Tests used:
[1] = Microsomal stability (pooled male mouse liver microsomes, NADPH regenerating system); details: 1 mg/mL microsomes, 37 °C
[2] = microsomes

Substance: ursolic acid-3-O-phenyl propionate [UA-3-O-PP]
- Kloss (elimination rate constant) ([1]; first-order decay fit): 0.003 min⁻¹
- t1/2 (in vitro half-life) ([1]; first-order kinetics assumed): 264.30 min
- Cl Int (in vitro intrinsic clearance) ([1]; linear kinetic assumed): 5.24 µg/min/mg
- mouse in vitro intrinsic clearance class [2]: low
